Assay results taken from PubChem BioAssay (NCI).
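Results reflect a 48-hour exposure of cells in 96-well plates to compound at five concentrations. Here, GI50 denotes the concentration required for 50% inhibition of growth. The concentration for full growth arrest is given as TGI.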

Experiments:
Test in all cases: inhibition of tumour cell growth, NCI panel, 48 h
786-0 renal = tested on: 786-0 renal
A498 renal = tested on: A498 renal
A549 NSCLC = tested on: A549 NSCLC
ACHN renal = tested on: ACHN renal
BT-549 breast = tested on: BT-549 breast
CAKI-1 renal = tested on: CAKI-1 renal
CCRF-CEM leukemia = tested on: CCRF-CEM leukemia
COLO 205 colon = tested on: COLO 205 colon
DU-145 prostate = tested on: DU-145 prostate
EKVX NSCLC = tested on: EKVX NSCLC
HCC-2998 colon = tested on: HCC-2998 colon
HCT-116 colon = tested on: HCT-116 colon
HCT-15 colon = tested on: HCT-15 colon
HL-60(TB) leukemia = tested on: HL-60(TB) leukemia
HOP-62 NSCLC = tested on: HOP-62 NSCLC
HOP-92 NSCLC = tested on: HOP-92 NSCLC
HS 578T breast = tested on: HS 578T breast
HT29 colon = tested on: HT29 colon
K-562 leukemia = tested on: K-562 leukemia
KM12 colon = tested on: KM12 colon
M14 melanoma = tested on: M14 melanoma
MALME-3M melanoma = tested on: MALME-3M melanoma
MCF7 breast = tested on: MCF7 breast
MDA-MB-231 breast = tested on: MDA-MB-231 breast
MDA-MB-435 = tested on: MDA-MB-435
MOLT-4 leukemia = tested on: MOLT-4 leukemia
NCI-H226 lung = tested on: NCI-H226 lung
NCI-H23 lung = tested on: NCI-H23 lung
NCI-H322M lung = tested on: NCI-H322M lung
NCI-H460 lung = tested on: NCI-H460 lung
NCI/ADR-RES ovarian = tested on: NCI/ADR-RES ovarian
OVCAR-3 ovarian = tested on: OVCAR-3 ovarian
OVCAR-4 ovarian = tested on: OVCAR-4 ovarian
OVCAR-5 ovarian = tested on: OVCAR-5 ovarian
OVCAR-8 ovarian = tested on: OVCAR-8 ovarian
PC-3 prostate = tested on: PC-3 prostate
RPMI-8226 leukemia = tested on: RPMI-8226 leukemia
RXF 393 renal = tested on: RXF 393 renal
SF-268 CNS = tested on: SF-268 CNS
SF-295 CNS = tested on: SF-295 CNS
SF-539 CNS = tested on: SF-539 CNS
SK-MEL-28 melanoma = tested on: SK-MEL-28 melanoma
SK-MEL-5 melanoma = tested on: SK-MEL-5 melanoma
SK-OV-3 ovarian = tested on: SK-OV-3 ovarian
SNB-75 CNS = tested on: SNB-75 CNS
SW-620 colon = tested on: SW-620 colon
T-47D breast = tested on: T-47D breast
TK-10 renal = tested on: TK-10 renal
U251 CNS = tested on: U251 CNS
UACC-257 melanoma = tested on: UACC-257 melanoma
UACC-62 melanoma = tested on: UACC-62 melanoma
UO-31 renal = tested on: UO-31 renal

Compound `CC(C)[As](SCC(O)CO)C(C)C` (stereo not drawn) has a GI50 (786-0 renal) of 532 nM, a TGI (786-0 renal) of 1990 nM and a GI50 (A498 renal) of 1310 nM. It also gave a TGI (A498 renal) of 3.12 µM, a GI50 (A549 NSCLC) of 3.36 µM and a TGI (A549 NSCLC) of 10.6 µM. For the same compound, the GI50 (ACHN renal) was 11.5 µM, the TGI (ACHN renal) was 16.9 µM and the GI50 (BT-549 breast) was 1290 nM. The TGI (BT-549 breast) was 2780 nM, the GI50 (CAKI-1 renal) was 658 nM and the TGI (CAKI-1 renal) was 2350 nM. It also gave a GI50 (CCRF-CEM leukemia) of 231 nM, a TGI (CCRF-CEM leukemia) of 1000 nM and a GI50 (COLO 205 colon) of 1060 nM. For the same compound, the TGI (COLO 205 colon) was 2590 nM, the GI50 (DU-145 prostate) was 1240 nM and the TGI (DU-145 prostate) was 5.03 µM. For the same compound, the GI50 (EKVX NSCLC) was 1240 nM, the TGI (EKVX NSCLC) was 6.15 µM and the GI50 (HCC-2998 colon) was 1410 nM. It also gave a TGI (HCC-2998 colon) of 2890 nM, a GI50 (HCT-116 colon) of 675 nM and a TGI (HCT-116 colon) of 3.55 µM. It also gave a TGI (HCT-15 colon) of 227 nM, a GI50 (HL-60(TB) leukemia) of 245 nM and a TGI (HL-60(TB) leukemia) of 10.3 µM. For the same compound, the GI50 (HOP-62 NSCLC) was 1680 nM, the TGI (HOP-62 NSCLC) was 3.17 µM and the GI50 (HOP-92 NSCLC) was 129 nM. The TGI (HOP-92 NSCLC) was 659 nM, the GI50 (HS 578T breast) was 1290 nM and the TGI (HS 578T breast) was 15.8 µM. For the same compound, the GI50 (HT29 colon) was 523 nM, the TGI (HT29 colon) was over 100 µM and the GI50 (K-562 leukemia) was 104 nM. For the same compound, the TGI (K-562 leukemia) was 5.64 µM, the GI50 (KM12 colon) was 1190 nM and the TGI (KM12 colon) was 2440 nM. For the same compound, the GI50 (M14 melanoma) was 1230 nM, the TGI (M14 melanoma) was 4.51 µM and the GI50 (MALME-3M melanoma) was 125 nM. It also gave a TGI (MALME-3M melanoma) of 912 nM, a GI50 (MCF7 breast) of 572 nM and a TGI (MCF7 breast) of 15.3 µM. It also gave a GI50 (MDA-MB-231 breast) of 175 nM, a TGI (MDA-MB-231 breast) of 844 nM and a GI50 (MDA-MB-435) of 1190 nM. For the same compound, the TGI (MDA-MB-435) was 3.07 µM, the GI50 (MOLT-4 leukemia) was 452 nM and the TGI (MOLT-4 leukemia) was 17.3 µM. The GI50 (NCI-H226 lung) was 3.26 µM, the TGI (NCI-H226 lung) was 9.52 µM and the GI50 (NCI-H23 lung) was 572 nM. The TGI (NCI-H23 lung) was 1900 nM, the GI50 (NCI-H322M lung) was 2190 nM and the TGI (NCI-H322M lung) was 4.99 µM. For the same compound, the GI50 (NCI-H460 lung) was 3.18 µM, the TGI (NCI-H460 lung) was 17.1 µM and the GI50 (NCI/ADR-RES ovarian) was 1710 nM. It also gave a TGI (NCI/ADR-RES ovarian) of 5.12 µM, a GI50 (OVCAR-3 ovarian) of 208 nM and a TGI (OVCAR-3 ovarian) of 1010 nM. It also gave a GI50 (OVCAR-4 ovarian) of 2360 nM, a TGI (OVCAR-4 ovarian) of 5.7 µM and a GI50 (OVCAR-5 ovarian) of 1510 nM. It also gave a TGI (OVCAR-5 ovarian) of 3.36 µM, a GI50 (OVCAR-8 ovarian) of 2310 nM and a TGI (OVCAR-8 ovarian) of over 100 µM. The GI50 (PC-3 prostate) was 778 nM, the TGI (PC-3 prostate) was 2600 nM and the GI50 (RPMI-8226 leukemia) was 176 nM. For the same compound, the TGI (RPMI-8226 leukemia) was 597 nM, the GI50 (RXF 393 renal) was 380 nM and the TGI (RXF 393 renal) was 1580 nM. It also gave a GI50 (SF-268 CNS) of 1290 nM, a TGI (SF-268 CNS) of 2870 nM and a GI50 (SF-295 CNS) of 2300 nM. It also gave a TGI (SF-295 CNS) of 9.51 µM, a GI50 (SF-539 CNS) of 1900 nM and a TGI (SF-539 CNS) of 3.78 µM. It also gave a GI50 (SK-MEL-28 melanoma) of 403 nM, a TGI (SK-MEL-28 melanoma) of 2330 nM and a GI50 (SK-MEL-5 melanoma) of 204 nM. The TGI (SK-MEL-5 melanoma) was 507 nM, the GI50 (SK-OV-3 ovarian) was 1370 nM and the TGI (SK-OV-3 ovarian) was 3.49 µM. For the same compound, the GI50 (SNB-75 CNS) was 1040 nM, the TGI (SNB-75 CNS) was 7.26 µM and the GI50 (SW-620 colon) was 302 nM. It also gave a TGI (SW-620 colon) of 2530 nM, a GI50 (T-47D breast) of 529 nM and a TGI (T-47D breast) of 5.84 µM. The GI50 (TK-10 renal) was 528 nM, the TGI (TK-10 renal) was 1920 nM and the GI50 (U251 CNS) was 1710 nM. For the same compound, the TGI (U251 CNS) was 6.94 µM, the GI50 (UACC-257 melanoma) was 308 nM and the TGI (UACC-257 melanoma) was 1300 nM. The GI50 (UACC-62 melanoma) was 2400 nM, the TGI (UACC-62 melanoma) was over 100 µM and the GI50 (UO-31 renal) was 1670 nM. The TGI (UO-31 renal) was 15.4 µM.
